In US10975434B2, “Growth differentiation factor 15 as biomarker for metformin” (Sanofi-Aventis Deutschland GmbH, priority 2015, dated 2021):
Entries after “also recorded” stand apart in the source; their conditions may differ.

Test system: GDF15
Assay: GDF15 release into media of primary hepatocytes (ELISA)
Conditions: primary C57Bl6 hepatocytes, 24 hours; metformin 0.5 mM, A769662 10 μM, insulin 10 nM, hydrogen peroxide 0.5 mM; versus vehicle/no exposure
Procedure: To further understand the link between metformin and GDF15 levels, in vitro experiments were conducted using mouse hepatocytes. Primary hepatocytes from 4 different C57Bl6 wild-type male mice were isolated by collagenase digestion as previously described^14. Briefly, cells were plated on 12-well collagen-coated plates overnight in William's Media E containing 10% fetal bovine serum (FBS) and 1% antibiotic-antimycotic. […] Media was then snap frozen and stored at −80° C. for later analyses, and cells were harvested in cell lysis buffer for assessment of total protein or RNA.
GDF15 release into the media was measured using a commercially available ELISA kit (R&D Systems, Minneapolis, Minn.) and expressed per mg of hepatocyte protein. Total RNA was isolated using the Trizol plus RNA Purification kit (Ambion), concentrated with Speedvac (Thermo), and then quantified using Quant-IT RiboGreen (LifeTech). Total RNA was then reverse transcribed and amplified using the Illumina TotalPrep RNA Amplification Kit (LifeTech) according to the manufacturer's protocol. Samples were hybridized to the Illumina Mouse Ref-8 v2.0 complementary DNA BeadChip and scanned on the iScan System (Illumina). The raw sample probe profile and control probe profile were exported from GenomeStudio version 1.9.0 (Illumina). […]

Question: For insulin, which “GDF15 protein in the hepatocyte media (GDF15 secretion)” value is on record?
Answer: none of these substances affected; also recorded: unaffected
